NRP1-CendR mod = modulators of CendR peptide binding to NRP-1, primary screen, biochemical, fluorescence polarization, uHTS. Neuropilin-1 (Homo sapiens), O14786. inhibition, % at 25 µM. FAM-RPARPAR peptide binding to NRP-1. actives 0.85% (n = 360,000). AID 602438, 2012;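 active means inhibition or corrected inhibition above about 18%, plus a signal ratio from 0.5 to 1.5, limit read from the data, passing the limit was not always enough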
MC4R antag cAMP = MC4R antagonists of cAMP signaling, primary screen, cell-based, TR-FRET, antagonist arm of biased-ligand search; MC4R-expressing cells, MTII-stimulated cAMP, LANCE TR-FRET; inhibition, % at 6.5 µM; actives 0.48% (n = 360,000); AID 540295, 2011;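 active means inhibition above its plate's cutoff, the mean of tested wells on that plate plus 3 SD, cut at about 29% in these data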
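Assay system: U2OS-MC4R stable cell line; Also added: Melanotan II; Technique: Eu-cAMP/anti-cAMP TR-FRET, emission 671 nm; Times: 30-min compound, 1-h challenge, 1-h detection, room temperature.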
ASAP1 GAP inh = inhibitors of human ASAP1 ArfGAP activity, primary screen, biochemical, fluorescence polarization; ASAP1-stimulated ARF1 GTP hydrolysis, GDP FP detection; inhibition, % at 16.5 µM; actives 0.19% (n = 360,000); in the data active means inhibition above about 25%
MC4R ag barr = MC4R agonists recruiting beta-arrestin, primary screen, cell-based, luminescence, agonist arm of biased-ligand search. activation, % at 8.9 µM. U2OS MC4R beta-arrestin complementation; percent of melanotan II response, DMSO zero. Melanocortin receptor 4 (Homo sapiens), P32245. AID 540308, 2011. actives 0.98% (n = 360,000);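 active means activation above a per-plate cutoff, the mean activation of sample wells on that plate plus 3 SD, cut at about 8% in these data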
ARFGAP1 inh = inhibitors of rat ARFGAP1 GAP activity, primary screen, biochemical, fluorescence polarization, GDP tracer; AID 651572, 2012; Arfgap1-stimulated ARF1 GTP hydrolysis, GDP FP detection; inhibition, % at 16.5 µM; actives 0.26% (n = 360,000); ADP-ribosylation factor GTPase-activating protein 1 (Rattus norvegicus), Q62848;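 active means inhibition above a per-plate limit, mean inhibition of low control wells plus 3 SD, cut at about 25% in these data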
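Repeats: one replicate per compound; assay system: rat Arfgap1 catalytic domain, aa 1-136; times: enzyme reaction 120 min at 25 °C after 20 min preincubation; detection: FP of antibody-bound GDP Alexa 633 tracer, ex 620/em 688 nm; benchmarks: high control wells lacking Arfgap1, low control full reaction with DMSO; reagent: human ARF1(Δ1-17)-GTP substrate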
UUG fidelity = modulators of yeast start codon fidelity, primary screen, whole organism, S. cerevisiae, single point, plate reader | AID 602363, 2012 | actives 0.13% (n = 350,000) | activity score, % at 18.7 µM | S. cerevisiae UUG-firefly luciferase reporter, luminescence/redox ratio;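 active means replicate mean at a twofold rise or more, about +100% in these data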;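 further: firefly luciferase made from a UUG start codon reports start codon fidelity; reporter light over untreated wells divided by growth signal over untreated wells; some hits fall short of that in this replicate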
Numbers stand for hits; - = inactive; . = no result given. Sampled rows, rich in hits. Any-hit rate of the full collection: about 2.3%.

By UniProt entry, the sequences of proteins in these tests, tags left out. Residues count along the entry.
Neuropilin-1 (Homo sapiens), O14786, UniProt O14786, whole entry, looked up: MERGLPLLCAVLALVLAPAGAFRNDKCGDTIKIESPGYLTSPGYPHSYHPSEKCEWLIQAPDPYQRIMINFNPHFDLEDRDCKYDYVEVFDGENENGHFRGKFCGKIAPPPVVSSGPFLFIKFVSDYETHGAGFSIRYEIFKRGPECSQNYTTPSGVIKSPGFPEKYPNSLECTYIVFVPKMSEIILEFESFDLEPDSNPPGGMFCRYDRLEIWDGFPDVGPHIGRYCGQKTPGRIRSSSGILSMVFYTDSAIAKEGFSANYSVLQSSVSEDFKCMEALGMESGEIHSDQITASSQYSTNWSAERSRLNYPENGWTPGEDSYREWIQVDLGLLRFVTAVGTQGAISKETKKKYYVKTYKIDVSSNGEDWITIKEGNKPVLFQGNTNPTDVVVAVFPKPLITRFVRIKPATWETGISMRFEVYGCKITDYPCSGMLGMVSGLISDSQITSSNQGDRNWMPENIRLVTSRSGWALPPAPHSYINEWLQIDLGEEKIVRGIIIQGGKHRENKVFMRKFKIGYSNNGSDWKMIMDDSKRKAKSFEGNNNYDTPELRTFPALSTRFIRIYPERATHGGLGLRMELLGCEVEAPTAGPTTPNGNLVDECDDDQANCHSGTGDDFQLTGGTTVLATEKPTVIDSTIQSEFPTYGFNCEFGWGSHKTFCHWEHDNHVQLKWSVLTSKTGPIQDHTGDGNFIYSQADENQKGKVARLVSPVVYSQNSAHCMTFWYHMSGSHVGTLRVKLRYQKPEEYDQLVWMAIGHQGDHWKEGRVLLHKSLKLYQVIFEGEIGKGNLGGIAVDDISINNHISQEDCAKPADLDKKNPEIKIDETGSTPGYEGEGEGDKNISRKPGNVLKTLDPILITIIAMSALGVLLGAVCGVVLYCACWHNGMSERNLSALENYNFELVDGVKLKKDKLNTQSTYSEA
Melanocortin receptor 4 (Homo sapiens), P32245, UniProt P32245, whole entry, looked up: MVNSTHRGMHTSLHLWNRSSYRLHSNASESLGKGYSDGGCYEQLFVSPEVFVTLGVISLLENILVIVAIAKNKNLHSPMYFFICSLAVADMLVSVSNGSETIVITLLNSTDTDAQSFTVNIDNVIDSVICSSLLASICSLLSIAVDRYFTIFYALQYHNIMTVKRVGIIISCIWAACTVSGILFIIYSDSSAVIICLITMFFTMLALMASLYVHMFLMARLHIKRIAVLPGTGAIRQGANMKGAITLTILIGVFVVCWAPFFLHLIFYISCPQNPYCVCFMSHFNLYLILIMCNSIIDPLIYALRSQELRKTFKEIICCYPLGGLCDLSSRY
ADP-ribosylation factor GTPase-activating protein 1 (Rattus norvegicus), Q62848, UniProt Q62848, whole entry, looked up: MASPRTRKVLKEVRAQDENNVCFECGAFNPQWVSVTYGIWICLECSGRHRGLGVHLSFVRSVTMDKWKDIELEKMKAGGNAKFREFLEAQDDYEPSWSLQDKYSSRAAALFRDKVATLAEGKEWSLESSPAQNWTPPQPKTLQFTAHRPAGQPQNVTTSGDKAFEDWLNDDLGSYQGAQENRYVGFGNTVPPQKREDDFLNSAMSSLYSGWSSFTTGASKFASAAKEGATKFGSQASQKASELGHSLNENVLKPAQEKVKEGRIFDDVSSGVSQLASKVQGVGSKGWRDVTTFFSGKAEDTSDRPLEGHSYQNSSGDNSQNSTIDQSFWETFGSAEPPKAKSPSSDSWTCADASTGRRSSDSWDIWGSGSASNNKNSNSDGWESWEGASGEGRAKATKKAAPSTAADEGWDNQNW
ADP-ribosylation factor GTPase-activating protein 1 (Rattus norvegicus), Q62848, UniProt Q62848, 1-136 limits assumed: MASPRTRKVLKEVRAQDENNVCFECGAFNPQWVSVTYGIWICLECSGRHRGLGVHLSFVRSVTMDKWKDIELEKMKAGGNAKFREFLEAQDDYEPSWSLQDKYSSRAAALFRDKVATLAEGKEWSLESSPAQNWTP

SMILES | NRP1-CendR mod | MC4R antag cAMP | ASAP1 GAP inh | MC4R ag barr | ARFGAP1 inh | UUG fidelity
COc1cc(/C=N\NC(=O)c2ccc(-c3ccccc3)cc2)ccc1OCC(N)=O | - | - | - | 26 | - | -
COc1ccc(/C=N/NC(=O)c2ccc(NC(=O)C3CCCCC3)cc2)cc1O | - | - | - | - | - | -
C[C@@H]1CCCCO[C@@H](CN(C)S(=O)(=O)c2ccccc2)[C@H](C)CN([C@@H](C)CO)C(=O)c2cc(NC(=O)Nc3ccc(C(F)(F)F)cc3)ccc2O1 | . | . | . | . | . | -
N#C/C(=C\c1ccc(OC(=O)c2ccc(Cl)s2)cc1)c1nc2ccccc2[nH]1 | 39 | - | - | - | - | .
NC(CCc1ccccc1)c1csc(NC(=O)NCC2CCCCC2)n1 (centres undefined) | - | - | - | 8.7 | - | -
CC(C)c1ccc(NC(=O)Nc2nc(C(N)CCc3ccccc3)cs2)cc1 (centres undefined) | - | - | - | - | - | -
NC(CCc1ccccc1)c1csc(NC(=O)Nc2cccc(C(F)(F)F)c2)n1 (centres undefined) | - | - | - | 8.8 | - | -
CC(C)C(N)c1csc(NC(=O)Nc2cccc(C(F)(F)F)c2)n1 (centres undefined) | 24 | - | - | - | - | -
CC(C)CC#Cc1ccc2c(c1)O[C@H](CN(C)C(=O)Cc1ccccc1)[C@@H](C)CN([C@@H](C)CO)S2(=O)=O | . | . | . | . | . | -
C[C@H]1CCCCO[C@H](CN(C)C(=O)c2ccncc2)[C@@H](C)CN([C@@H](C)CO)C(=O)c2cc(NS(=O)(=O)c3cccs3)ccc2O1 | . | . | . | . | . | -
O=C(C[C@H]1C[C@H]2c3cc(NC(=O)c4cccnc4)ccc3O[C@H]2[C@@H](CO)O1)NCc1cccc(F)c1 | . | . | . | . | . | -
C[C@H]1CN([C@@H](C)CO)C(=O)c2cc(NS(C)(=O)=O)ccc2O[C@@H]1CN(C)C(=O)NC1CCCCC1 | . | . | . | . | . | -
CC1(c2ccc(Cl)cc2)NC(=O)N(CC(=O)Nc2ccc3c(c2)OCO3)C1=O (centres undefined) | 35 | - | - | - | - | -
CC[n+]1c(/C=C/N(C)c2ccccc2)n(-c2ccccc2)c2ccc(-c3nc4ccccc4s3)cc21 | - | - | . | 16 | . | -
CO[C@@H]1CN(C)C(=O)c2cc(NS(=O)(=O)CC(F)(F)F)ccc2OC[C@H](C)N(Cc2ccccn2)C[C@H]1C | . | . | . | . | . | -
Cc1cc(C)c(S(=O)(=O)/N=C2/C=C(Sc3ncn[nH]3)C(=O)c3ccccc32)cc1C | - | 62 | - | - | - | .
Cc1ccc(C)c(S(=O)(=O)/N=C2\C=C(NS(=O)(=O)c3ccccc3)C(=O)c3ccccc32)c1 | - | - | - | - | - | -
O=C(C[C@H]1C[C@H]2c3cc(NC(=O)Nc4ccccc4)ccc3O[C@H]2[C@H](CO)O1)NCc1ccccn1 | . | . | . | . | . | -
Cc1noc(C)c1NC(=O)Nc1cccc2c1O[C@@H](CN(C)C(=O)NC(C)C)[C@H](C)CN([C@@H](C)CO)C2=O | . | . | . | . | . | -
O=C(Nc1ccc2c(c1)[C@@H]1C[C@@H](CC(=O)N3CCc4ccccc4C3)O[C@@H](CO)[C@@H]1O2)C1CCC1 | . | . | . | . | . | -
COc1ccc(Nc2nccc(-c3ccc(C#N)cc3)n2)cc1 | - | - | - | - | - | -
COc1ccc(Nc2nccc(-c3cccc(N)c3)n2)cc1 | 20 | - | - | - | - | -
Cc1nc(Nc2ccc(S(N)(=O)=O)cc2)oc1C | 26 | - | - | - | - | -
COC1=CC(=NCl)C=CC1=NCl | 54 | . | . | . | . | .
ClN=C1C=CC=CC1=NCl | - | . | . | . | . | .
Cc1ccc(-n2nc3c(N4CCC(C(=O)NCCc5ccccc5C)CC4)nnc(C)c3c2C)cc1 | - | - | . | 16 | . | -
COc1ccc(-n2nc3c(N4CCC(C(=O)NCCc5ccccc5C)CC4)nnc(C)c3c2C)cc1 | - | - | . | - | . | -
